Reference: IntAct's records for PubMed 24805245

B1: DNA replication complex GINS protein SLD5 (Saccharomyces cerevisiae), Q03406 (parent)
chain: MDINIDDILAELDKETTAVDSTKITQGSSSTTHRDANTIVGSSLDLNDKTQIYVSPQQDFSDLMKSWKNERCSPELLPYPHQLMKRLLNRISMQSQLIENISMGFLDMQNASNANPPMPNESKLPLLCMETELERLKFVIRSYIRCRLSKIDKFSLYLRQLNEDENSLISLTDLLSKDEIKYHDTHSLIWLKLVNDSILKYMPEELQAINDTEGSVNMIDEPDWNKFVFIHVNGPPDGKWNEDPLLQENEFGKPCYTVTIPDLKEEVELTIGSIYVMRYEVIRDLLRDDKVALI
partner: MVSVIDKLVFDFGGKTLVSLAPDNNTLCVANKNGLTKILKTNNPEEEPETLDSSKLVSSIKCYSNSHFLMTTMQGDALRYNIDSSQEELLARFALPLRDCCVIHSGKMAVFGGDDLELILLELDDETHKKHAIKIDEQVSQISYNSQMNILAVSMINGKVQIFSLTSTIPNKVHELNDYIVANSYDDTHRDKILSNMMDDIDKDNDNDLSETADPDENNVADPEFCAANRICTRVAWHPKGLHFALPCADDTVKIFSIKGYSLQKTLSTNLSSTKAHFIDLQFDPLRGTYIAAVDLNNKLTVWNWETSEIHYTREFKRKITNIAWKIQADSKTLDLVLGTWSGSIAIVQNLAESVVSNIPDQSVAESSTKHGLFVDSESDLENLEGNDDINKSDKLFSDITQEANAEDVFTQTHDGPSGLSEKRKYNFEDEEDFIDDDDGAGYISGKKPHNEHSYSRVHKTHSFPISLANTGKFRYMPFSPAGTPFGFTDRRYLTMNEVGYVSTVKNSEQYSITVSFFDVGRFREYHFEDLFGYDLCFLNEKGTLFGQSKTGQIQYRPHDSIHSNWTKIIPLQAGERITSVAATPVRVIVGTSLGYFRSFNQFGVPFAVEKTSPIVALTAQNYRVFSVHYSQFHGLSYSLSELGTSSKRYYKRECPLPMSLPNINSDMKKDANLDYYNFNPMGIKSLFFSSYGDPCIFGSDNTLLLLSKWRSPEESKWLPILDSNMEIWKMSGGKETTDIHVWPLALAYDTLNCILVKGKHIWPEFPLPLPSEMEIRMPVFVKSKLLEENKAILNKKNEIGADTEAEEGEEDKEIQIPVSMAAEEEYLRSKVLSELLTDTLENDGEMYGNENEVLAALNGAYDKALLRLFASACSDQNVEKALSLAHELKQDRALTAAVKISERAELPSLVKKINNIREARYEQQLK
B2: DNA polymerase alpha catalytic subunit A (Saccharomyces cerevisiae), P13382 (parent)
chain: MSSKSEKLEKLRKLQAARNGTSIDDYEGDESDGDRIYDEIDEKEYRARKRQELLHDDFVVDDDGVGYVDRGVEEDWREVDNSSSDEDTGNLASKDSKRKKNIKREKDHQITDMLRTQHSKSTLLAHAKKSQKKSIPIDNFDDILGEFESGEVEKPNILLPSKLRENLNSSPTSEFKSSIKRVNGNDESSHDAGISKKVKIDPDSSTDKYLEIESSPLKLQSRKLRYANDVQDLLDDVENSPVVATKRQNVLQDTLLANPPSAQSLADEEDDEDSDEDIILKRRTMRSVTTTRRVNIDSRSNPSTSPFVTAPGTPIGIKGLTPSKSLQSNTDVATLAVNVKKEDVVDPETDTFQMFWLDYCEVNNTLILFGKVKLKDDNCVSAMVQINGLCRELFFLPREGKTPTDIHEEIIPLLMDKYGLDNIRAKPQKMKYSFELPDIPSESDYLKVLLPYQTPKSSRDTIPSDLSSDTFYHVFGGNSNIFESFVIQNRIMGPCWLDIKGADFNSIRNASHCAVEVSVDKPQNITPTTTKTMPNLRCLSLSIQTLMNPKENKQEIVSITLSAYRNISLDSPIPENIKPDDLCTLVRPPQSTSFPLGLAALAKQKLPGRVRLFNNEKAMLSCFCAMLKVEDPDVIIGHRLQNVYLDVLAHRMHDLNIPTFSSIGRRLRRTWPEKFGRGNSNMNHFFISDICSGRLICDIANEMGQSLTPKCQSWDLSEMYQVTCEKEHKPLDIDYQNPQYQNDVNSMTMALQENITNCMISAEVSYRIQLLTLTKQLTNLAGNAWAQTLGGTRAGRNEYILLHEFSRNGFIVPDKEGNRSRAQKQRQNEENADAPVNSKKAKYQGGLVFEPEKGLHKNYVLVMDFNSLYPSIIQEFNICFTTVDRNKEDIDELPSVPPSEVDQGVLPRLLANLVDRRREVKKVMKTETDPHKRVQCDIRQQALKLTANSMYGCLGYVNSRFYAKPLAMLVTNKGREILMNTRQLAESMNLLVVYGDTDSVMIDTGCDNYADAIKIGLGFKRLVNERYRLLEIDIDNVFKKLLLHAKKKYAALTVNLDKNGNGTTVLEVKGLDMKRREFCPLSRDVSIHVLNTILSDKDPEEALQEVYDYLEDIRIKVETNNIRIDKYKINMKLSKDPKAYPGGKNMPAVQVALRMRKAGRVVKAGSVITFVITKQDEIDNAADTPALSVAERAHALNEVMIKSNNLIPDPQYYLEKQIFAPVERLLERIDSFNVVRLSEALGLDSKKYFRREGGNNNGEDINNLQPLETTITDVERFKDTVTLELSCPSCDKRFPFGGIVSSNYYRVSYNGLQCKHCEQLFTPLQLTSQIEHSIRAHISLYYAGWLQCDDSTCGIVTRQVSVFGKRCLNDGCTGVMRYKYSDKQLYNQLLYFDSLFDCEKNKKQELKPIYLPDDLDYPKEQLTESSIKALTEQNRELMETGRSVVQKYLNDCGRRYVDMTSIFDFMLN
partner: B1 partner

Variants of: B1
Settings: with ctf4_yeast CTF4, Q01454

Row | Variant | effect of a mutation on the interaction
1 | I8A | disrupting interaction strength
2 | L9A | disrupting interaction strength

Variants of: B2
Settings: with ctf4_yeast CTF4, Q01454

Row | Variant | effect of a mutation on the interaction
3 | F140A | disrupting interaction strength
4 | D142A | disrupting interaction strength
5 | I143A | disrupting interaction strength
6 | L144A | disrupting interaction strength
7 | F147A | disrupting interaction strength
